Literature values, collected in US20240424006A1, “USE OF UROLITHIN DERIVATIVES IN THE TREATMENT OF AMYOTROPHIC LATERAL SCLEROSIS” (Vandria SA, priority 2023, published 2024).

Conditions: ALS; FDA-approved therapy

In the case of Nc1nc2ccc(OC(F)(F)F)cc2s1 [riluzole], the prolongation of survival is listed as “about 10%”.
